The values below come from patent publication US9315489B2, “Compounds and compositions for inhibiting the activity of ABL1, ABL2 and BCR-ABL1” (Novartis AG, priority 2012, dated 2016).

Protein sequences, listed by entry. Tags and fused reporters are not part of them. Residues count along the entry.
UniProt P00519, 64-515: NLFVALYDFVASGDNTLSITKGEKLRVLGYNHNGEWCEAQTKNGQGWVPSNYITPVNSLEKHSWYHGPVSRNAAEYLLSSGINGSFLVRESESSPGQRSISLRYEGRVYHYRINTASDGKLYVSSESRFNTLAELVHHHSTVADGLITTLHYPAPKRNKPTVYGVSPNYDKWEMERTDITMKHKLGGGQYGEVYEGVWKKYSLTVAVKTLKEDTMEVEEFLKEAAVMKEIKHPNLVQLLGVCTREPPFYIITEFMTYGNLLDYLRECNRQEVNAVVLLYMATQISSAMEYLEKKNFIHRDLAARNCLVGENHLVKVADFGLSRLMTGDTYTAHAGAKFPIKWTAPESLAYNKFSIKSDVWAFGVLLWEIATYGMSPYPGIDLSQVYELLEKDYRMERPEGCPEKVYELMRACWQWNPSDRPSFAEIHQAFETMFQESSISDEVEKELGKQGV

The target of the test is ABL1 (64-515) (Homo sapiens (Human), UniProt P00519). The test is described as follows: Caliper ABL1 (64-515) assay (microfluidic mobility shift). It counts as biochemical.

Regarding `CC(C)(O)c1ncc(C(=O)Nc2ccc(OC(F)(F)F)cc2)cc1-c1cncnc1` [Example 66, 6-(2-Hydroxypropan-2-yl)-5-(pyrimidin-5-yl)-N-(4-(trifluoromethoxy)phenyl)nicotinamide], the IC50 (usually the midpoint of a concentration-inhibition curve) came out at 9.3 nM.
